The text below walks through data of US20210340245A1 (Janssen / Centocor, published 2021).

Amino acid sequences for entries named in this document (tags omitted). Residues count along the entry.
UniProt P01375, 77-233 limits assumed: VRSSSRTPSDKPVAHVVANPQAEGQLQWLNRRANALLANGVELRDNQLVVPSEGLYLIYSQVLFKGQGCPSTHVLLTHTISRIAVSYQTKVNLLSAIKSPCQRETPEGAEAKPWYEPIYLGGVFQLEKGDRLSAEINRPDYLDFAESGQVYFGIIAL

The test deals with T1, recombinant human TNFα (human, UniProt P01375 77-233, 125I label in the receptor-blocking assay).
T1 construct: also called huTNFα; tumor necrosis factor alpha
The test can be described thus: competition radioligand assay: cA2 spiked into anti-IL-18 control supernatant, preincubated with 125I-TNFα (5 ng/ml); binding of TNFα to plate-coated p55-sf2 read as cpm bound.

B1: chimeric antibody cA2 (antibody, V domains shown)
VH: EVKLEESGGGLVQPGGSMKLSCVASGFIFSNHWMNWVRQSPEKGLEWVAEIRSKSINSATHYAESVKGRFTISRDDSKSAVYLQMTDLRTEDTGVYYCSRNYYGSTYDYWGQGTTLTVS
VL: DILLTQSPAILSVSPGERVSFSCRASQFVGSSIHWYQQRTNGSPRLLIKYASESMSGIPSRFSGSGSGTDFTLSINTVESEDIADYYCQQSHSWPFTFGSGTNLEVK
In the case of B1, the “IC50 (read off the curve)” value is about 10 ng/mL.
